The values that follow are results of earlier work, collected in publication PMC5647227 (ACS chemical neuroscience, 2017).

The chains behind the UniProt entries cited, without tags or fusion partners.
UniProt P33533, whole entry: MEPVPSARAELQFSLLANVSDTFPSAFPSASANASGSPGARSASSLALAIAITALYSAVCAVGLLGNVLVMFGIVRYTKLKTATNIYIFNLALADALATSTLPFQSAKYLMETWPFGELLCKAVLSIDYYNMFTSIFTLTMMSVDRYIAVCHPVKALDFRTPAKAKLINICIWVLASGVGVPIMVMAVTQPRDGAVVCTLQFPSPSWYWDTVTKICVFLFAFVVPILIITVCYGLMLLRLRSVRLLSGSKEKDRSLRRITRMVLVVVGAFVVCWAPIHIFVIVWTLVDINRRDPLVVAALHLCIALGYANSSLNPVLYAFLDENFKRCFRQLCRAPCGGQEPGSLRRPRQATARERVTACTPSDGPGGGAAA
UniProt P32300, whole entry: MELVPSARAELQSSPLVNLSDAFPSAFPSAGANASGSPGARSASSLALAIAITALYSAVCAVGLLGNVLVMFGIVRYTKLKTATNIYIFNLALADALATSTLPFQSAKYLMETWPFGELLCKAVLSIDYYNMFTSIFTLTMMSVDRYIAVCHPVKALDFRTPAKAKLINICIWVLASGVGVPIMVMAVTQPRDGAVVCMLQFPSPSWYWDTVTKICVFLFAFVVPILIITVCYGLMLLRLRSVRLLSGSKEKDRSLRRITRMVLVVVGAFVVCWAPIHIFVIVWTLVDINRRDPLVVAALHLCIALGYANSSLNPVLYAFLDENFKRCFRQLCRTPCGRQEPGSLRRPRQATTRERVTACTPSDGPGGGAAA

Data set [1] has as its target DOP receptor (Rattus norvegicus, UniProt P33533). The settings on record: read-out: DOP Ki; [3H]DSLET, rat brain membranes; ref Ballet et al.[1]; cited from earlier work.
Data set [2] deals with DOP receptor (Mus musculus, UniProt P32300). The settings on record: read-out: MVD IC50; DOP receptor-representative assay; ref Ballet et al.[1]; cited from earlier work.

As usually defined, the Ki is the equilibrium dissociation constant of an inhibitor or competing ligand from its target. One may read the IC50 as the concentration that inhibits the measured activity by half. Turning to H-Dmt-D-Arg-Aba-Gly-NH2 [Compound 1], at DOP receptor [1], the Ki was 0.6 nM. Moreover, at DOP receptor [2], the IC50 was 0.42 nM.

For “H-Dmt-D-Arg-Aba-Gly-NMe-3′,5′-(CF3)2-Bn [Compound 3]”, at DOP receptor [1], the Ki is 10.4 nM. In addition, the IC50 on DOP receptor [2] was 43.3 nM.
